For one substance, EC90 in STAT-Luciferase assay results are on record in US20120225065A1.

The assay has as its target Human IL-21 receptor on Baf3/KZ134/huIL-21R cells (human) (UniProt Q9HBE5). The assay can be described thus: cell-based or functional assay.

In the case of “Recombinant murine IL-21 (from UniProt Q9ES17 18-146) (ligand)”, the EC90 in STAT-Luciferase assay stood at 6.41 nM.
